In ChEMBL document CHEMBL5046322, “Discovery of SHR2415, a Novel Pyrrole-Fused Urea Scaffold ERK1/2 Inhibitor” (ACS Med Chem Lett, 2022) one finds IC50 data, which are given here for 2 compounds.

The chains behind the UniProt entries cited, without tags or fusion partners.
UniProt P28482, whole entry: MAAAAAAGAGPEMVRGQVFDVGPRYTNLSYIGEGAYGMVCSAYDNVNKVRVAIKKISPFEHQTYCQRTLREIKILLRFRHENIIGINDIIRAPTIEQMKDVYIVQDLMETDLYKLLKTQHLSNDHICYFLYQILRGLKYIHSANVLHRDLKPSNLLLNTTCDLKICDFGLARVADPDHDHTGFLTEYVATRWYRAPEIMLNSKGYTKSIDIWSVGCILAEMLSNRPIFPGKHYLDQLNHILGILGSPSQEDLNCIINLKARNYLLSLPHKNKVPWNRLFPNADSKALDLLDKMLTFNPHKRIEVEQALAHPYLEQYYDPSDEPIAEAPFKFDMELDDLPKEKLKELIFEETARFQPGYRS
UniProt P27361, whole entry: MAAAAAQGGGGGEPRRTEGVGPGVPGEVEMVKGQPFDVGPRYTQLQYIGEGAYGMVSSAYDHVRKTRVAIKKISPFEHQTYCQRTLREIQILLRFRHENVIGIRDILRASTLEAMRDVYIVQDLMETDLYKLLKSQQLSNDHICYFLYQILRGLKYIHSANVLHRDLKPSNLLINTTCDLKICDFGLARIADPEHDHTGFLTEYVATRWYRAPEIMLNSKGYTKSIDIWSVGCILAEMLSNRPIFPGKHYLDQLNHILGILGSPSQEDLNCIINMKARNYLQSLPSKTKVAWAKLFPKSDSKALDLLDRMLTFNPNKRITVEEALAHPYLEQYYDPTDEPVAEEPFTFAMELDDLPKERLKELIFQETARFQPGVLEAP

The target in test [1] is Mitogen-activated protein kinase 1 (Homo sapiens, UniProt P28482). The experiment in a line: Inhibition of ERK2 (unknown origin) measured after 2 hr by ADP-glo assay. (In general: In ADP-Glo the light output rises with the ADP produced.)
The target in test [2] is Mitogen-activated protein kinase 3 (Homo sapiens, UniProt P27361). The experiment in a line: Inhibition of ERK1 (unknown origin) measured after 2 hr by ADP-glo assay.

Structures are written as SMILES. pIC50: −log10 of the molar value.

By pIC50 is commonly meant the IC50 on a negative log10 scale, so that one unit is a factor of ten. A low value points to a large IC50. In test [1], `C[C@@H](CO)Nc1ncc(Cl)c(-c2cc3n(c2)C(=O)N([C@H](CO)c2cccc(Cl)c2)C3)n1` had a pIC50 of 8.14. For the compound `Cc1cnc(Nc2ccnn2C)nc1-c1cc2n(c1)C(=O)N([C@H](CO)c1cccc(Cl)c1)C2`, the pIC50 in test [2] was 8.56.
